# Measurements reported in patent publication US20230096602A1, “TETRAHYDROCYCLOPENTA[B]INDOLE COMPOUNDS FOR TREATMENT OF RENAL DISEASE” (Eirgen Pharma Ltd., priority 2020, published 2023).
# What was measured:
# [1] = test system: patients with ED who had an incomplete response to tadalafil; experiment: Study GPEC phase 2, 12 weeks
# Description: The Phase 2 Study for ED also included exploratory measures for lower extremity muscle strength and power, LBM and fat mass.
# [2] = test system: male subjects with LUTS secondary to BPH; experiment: Study SAR-202 phase 2, 16 weeks; assay type: in vivo, human
# dog prostate = experiment: Dog toxicology: prostate weight and atrophy
# [3] = test system: orchidectomized (ORX) rats; experiment: Bone effects in osteopenic ORX rat model; assay type: in vivo
# healthy subjects = experiment: Study GPBC multiple-dose 28 days; assay type: in vivo, human
# rat prostate = experiment: Rat toxicology: prostate weight and atrophy
# [4] = 5 mg + 5 mg tadalafil vs 10 mg tadalafil, 12 weeks
compound,measurement,setting,value
"CC(C)OC(=O)N[C@H]1Cc2c(n(Cc3ccccn3)c3ccc(C#N)cc23)C1 [compound of Formula II, (S)-(7-cyano-4-pyridin-2-ylmethyl-1,2,3,4-tetrahydro-cyclopenta[b]indol-2-yl)-carbamic acid isopropyl ester]",LBM,[1]; [4],increase (improvement)
same,Lower extremity muscle power (stair climb),[1]; [4],increased (improved)
same,fat body mass,[1]; [4],reduction
same,testosterone,[1]; 12-week study in elderly men,clinically meaningful decrease
same,Change in Prostate Specific Antigen (week 16 to baseline),[2]; 15 mg,did not change
same,Change in Prostate Specific Antigen (week 16 to baseline),[2]; 25 mg,significantly decreased
same,Prostate atrophy (no affect/no examined),"dog prostate; 1 month, 3 mg/kg/day",“”
same,Prostate atrophy (no affect/no examined),"dog prostate; 1 month, 30 mg/kg/day",“”
same,Prostate atrophy (no affect/no examined),"dog prostate; 1 month, 150 mg/kg/day",1/4
same,Prostate atrophy (no affect/no examined),"dog prostate; 6 months, 3 mg/kg/day",4/4
same,Prostate atrophy (no affect/no examined),"dog prostate; 6 months, 30 mg/kg/day",4/4
same,Prostate atrophy (no affect/no examined),"dog prostate; 6 months, 150 mg/kg/day",4/4
same,Prostate atrophy (no affect/no examined),"dog prostate; 12 months, 3 mg/kg/day",2/4
same,Prostate atrophy (no affect/no examined),"dog prostate; 12 months, 10 mg/kg/day",3/4
same,Prostate atrophy (no affect/no examined),"dog prostate; 12 months, 100 mg/kg/day",4/4
same,bone anabolic biomarkers P1NP and periosteal alkaline phosphatase,[3]; after 2 and 8 weeks of treatment,significant increase
same,"vertebral bone mineral content (BMC), cross-sectional area, and bone mineral density (BMD)",[3]; daily oral administration,dose-dependent increase
same,LBM and calf area (by CT),healthy subjects,clinically and statistically significant increases
same,Prostate atrophy (no affect/no examined),"rat prostate; 1 month, 15 mg/kg/day",“”
same,Prostate atrophy (no affect/no examined),"rat prostate; 1 month, 150 mg/kg/day",“”
same,Prostate atrophy (no affect/no examined),"rat prostate; 1 month, 1500 mg/kg/day",“”
same,Prostate atrophy (no affect/no examined),"rat prostate; 3 months, 3 mg/kg/day",“”
same,Prostate atrophy (no affect/no examined),"rat prostate; 3 months, 30 mg/kg/day",“”
same,Prostate atrophy (no affect/no examined),"rat prostate; 3 months, 1000 mg/kg/day",“”
same,Prostate atrophy (no affect/no examined),"rat prostate; 6 months, 15 mg/kg/day",“”
same,Prostate atrophy (no affect/no examined),"rat prostate; 6 months, 1500 mg/kg/day",4/15
